Target: T1, rat P2X3 receptor (Rattus norvegicus, UniProt P49654)
T1 sequence (P49654 1-397): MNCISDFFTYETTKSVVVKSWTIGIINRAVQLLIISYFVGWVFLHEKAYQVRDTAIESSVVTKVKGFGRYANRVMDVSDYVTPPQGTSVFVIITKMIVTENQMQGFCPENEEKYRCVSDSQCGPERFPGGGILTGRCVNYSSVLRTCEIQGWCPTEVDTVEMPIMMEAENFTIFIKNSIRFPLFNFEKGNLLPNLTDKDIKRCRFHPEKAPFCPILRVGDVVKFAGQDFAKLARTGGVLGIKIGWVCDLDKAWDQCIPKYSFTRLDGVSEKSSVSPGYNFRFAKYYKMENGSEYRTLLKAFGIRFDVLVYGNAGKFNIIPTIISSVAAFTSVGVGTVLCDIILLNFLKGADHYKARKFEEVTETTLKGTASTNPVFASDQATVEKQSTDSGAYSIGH
Experiment: cell-based

Row | SMILES | IC50
1 | COc1cc(Cc2cnc(N)nc2N)c(C(C)C)cc1OC [5-(2-Isopropyl-4,5-dimethoxy-benzyl)-pyrimidine-2,4-diamine] | 0.115 µM
2 | COc1cc(Cc2cnc(N)nc2N)c(C(C)(C)C)cc1OC [5-(2-tert-Butyl-4,5-dimethoxy-benzyl)-pyrimidine-2,4-diamine] | > 10 µM
3 | CCCc1cc(OC)c(OC)cc1Cc1cnc(N)nc1N [5-(4,5-Dimethoxy-2-propyl-benzyl)-pyrimidine-2,4-diamine] | > 10 µM

— patent US8846705B2, “Diaminopyrimidines as P2X3 and P2X2/3 antagonists” (Roche Palo Alto LLC, priority 2004, dated 2014)
